Each structure is given as a SMILES string.

We go through 1 molecule from US4639468A, “Derivatives of glycinamide, their preparation and their use” (priority 1979, dated 1987).

A short description of data set [1]: in vivo. The settings on record: mouse, po.
The nature of data set [2]: in vivo. Particulars: mouse, po, DL50/DE50 (therapeutical index), Table III. The procedure: The anticonvulsive effect was examined for tonic convulsions induced by bicuculline. The compounds of the invention were administrated orally at dosages of 10 and 100 mgr/kg, each to 5 mice, 3 hours before intravenous injection of bicuculline at the dosage of 0.6 mgr/kg. The number of mice protected against tonic convulsions and the number of dead mice were noted.
Amongst the substances according to the invention, 2-n-pentylaminoacetamideand its hydrochloride were more particularly studied. […] The hydrochloride was also administered intravenously. […] Table III also gives the therapeutical index (LD50/ED50).

Take `O=C1NC(=O)C(c2ccccc2)(c2ccccc2)N1` [Na Diphenylhydantoin, reference compound]: the LD50 in “in vivo [1]” amounted to 320 mg/kg. For the same molecule, the selectivity ratio in “in vivo [2]” came out at 122.
